From ChEMBL document CHEMBL5321206, “New amidine-benzenesulfonamides as iNOS inhibitors for the therapy of the triple negative breast cancer” (Eur J Med Chem, 2023)

Target: T1, Nitric oxide synthase 3 (Bos taurus, UniProt P29473)
T1 sequence (P29473 whole entry): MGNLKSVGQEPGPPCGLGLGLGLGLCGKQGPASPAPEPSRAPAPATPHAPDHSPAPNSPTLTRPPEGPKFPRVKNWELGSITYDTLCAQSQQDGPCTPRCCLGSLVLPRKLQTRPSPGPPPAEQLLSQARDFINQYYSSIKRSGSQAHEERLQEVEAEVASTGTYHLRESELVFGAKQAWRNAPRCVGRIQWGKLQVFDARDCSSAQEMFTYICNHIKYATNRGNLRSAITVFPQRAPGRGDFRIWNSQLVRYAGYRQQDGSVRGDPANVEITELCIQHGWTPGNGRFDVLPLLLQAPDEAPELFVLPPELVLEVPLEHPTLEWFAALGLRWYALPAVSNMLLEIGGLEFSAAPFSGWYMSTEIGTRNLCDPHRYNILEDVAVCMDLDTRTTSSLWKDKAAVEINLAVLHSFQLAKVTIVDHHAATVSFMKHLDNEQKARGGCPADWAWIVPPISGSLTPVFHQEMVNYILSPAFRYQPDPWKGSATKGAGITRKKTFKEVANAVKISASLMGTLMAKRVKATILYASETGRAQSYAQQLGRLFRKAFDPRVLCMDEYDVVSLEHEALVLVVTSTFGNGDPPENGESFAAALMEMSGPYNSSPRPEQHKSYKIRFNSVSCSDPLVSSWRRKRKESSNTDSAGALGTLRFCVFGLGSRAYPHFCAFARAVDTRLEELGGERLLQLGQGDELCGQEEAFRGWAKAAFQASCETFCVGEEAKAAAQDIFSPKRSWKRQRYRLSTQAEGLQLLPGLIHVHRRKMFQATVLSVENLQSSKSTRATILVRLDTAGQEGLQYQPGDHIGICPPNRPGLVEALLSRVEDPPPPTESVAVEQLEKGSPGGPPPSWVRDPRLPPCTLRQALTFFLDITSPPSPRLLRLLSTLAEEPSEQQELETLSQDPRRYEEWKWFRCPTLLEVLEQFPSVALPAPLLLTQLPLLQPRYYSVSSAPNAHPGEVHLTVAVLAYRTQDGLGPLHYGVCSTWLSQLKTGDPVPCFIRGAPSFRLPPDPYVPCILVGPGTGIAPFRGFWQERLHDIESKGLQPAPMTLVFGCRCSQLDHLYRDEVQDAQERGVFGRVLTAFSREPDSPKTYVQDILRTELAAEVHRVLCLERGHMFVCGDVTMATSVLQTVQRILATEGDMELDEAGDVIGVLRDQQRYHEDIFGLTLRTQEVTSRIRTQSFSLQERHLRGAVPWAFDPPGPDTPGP
Assay: Inhibition of full length N-terminal his-tagged bovine eNOS (2 to 1205 residues) expressed in Escherichia coli preincubated for 15 mins followed by NADPH addition and measured after 30 mins by HPLC analysis
Outline: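 Recombinant bovine eNOS in HEPES buffer with 2 mM CaCl2 plus the same cofactor mix as the iNOS assay (DTT, BSA, FMN, FAD, BH4, calmodulin, 10 μM L-Arg). Compound pre-incubated 15 min at 37 °C. NADPH-started reaction run 30 min at 37 °C, quenched with cold CH3CN. Read by OPA/NAC fluorescence HPLC. […] IC50 from seven concentrations in triplicate.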

IC50: > 50 µM
SMILES: CC(=N)NCc1cccc(CN)c1 [1400W]
